Test results published in ChEMBL document CHEMBL1154886, “DNA-damaging, mutagenic, and clastogenic activities of gentiopicroside isolated from Cephalaria kotschyi roots” (J Nat Prod, 2010).

Experiment: Mutagenic activity in Salmonella typhimurium TA98 assessed as increase in number of revertants at 0.002 ug/plate by Ames test absence of S9 fraction (Rvb=22+/- 4)
Settings: salmonella enterica subsp. enterica serovar typhimurium

**Q.** For O=C1c2cc([N+](=O)[O-])ccc2-c2c1cc([N+](=O)[O-])cc2[N+](=O)[O-], which Activity is on record?
**A.** 727
